Test results as given in patent publication EP4744648A1, “LIPOPEPTIDE-CONTAINING FAT-DISSOLVING PRODUCT, AND PREPARATION METHOD THEREFOR AND USE THEREOF” (Bloomage Biotechnology Corporation Limited, priority 2023, dated 2024).
Read-outs that look alike come from different tables or passages of the source.

Test system: Mouse adipocyte cell line 3T3-F442A
Conditions: 24 h; for Relative growth rate (%): Example 2, 3T3-F442A

CCCCCCCCCC(=O)N[C@@H](Cc1c[nH]c2ccccc12)C(=O)N[C@H](CC(N)=O)C(=O)N[C@@H](CC(=O)O)C(=O)N[C@@H]1C(=O)NCC(=O)N[C@@H](CCCN)C(=O)N[C@@H](CC(=O)O)C(=O)N[C@H](C)C(=O)N[C@@H](CC(=O)O)C(=O)NCC(=O)N[C@H](CO)C(=O)N[C@@H]([C@H](C)CC(=O)O)C(=O)N[C@@H](CC(=O)c2ccccc2N)C(=O)O[C@@H]1C [Daptomycin, reference compound]
half maximal inhibitory concentrations IC50 (3T3-F442A adipocytes, calculated from Table 2 curves): 144.4 µg/mL
Relative growth rate (%) (0.01 mg/mL): 86.04±3.93%
Relative growth rate (%) (0.04 mg/mL): 77.87±3.87%
Relative growth rate (%) (0.08 mg/mL): 74.12±1.16%
Relative growth rate (%) (0.16 mg/mL): 43.11± 1.96%
